# System: Chinese hamster ovary K1 cells
# Test: in vitro micronucleus test
# Conditions: without S9, 1 µM
smiles,measurement,value
CO[C@@]12[C@H](COC(N)=O)C3=C(C(=O)C(C)=C(N)C3=O)N1C[C@@H]1N[C@@H]12 [Mitomycin C],% Cytostasis,41.6%

# From article PMC10041525, “New Dual Inhibitors of Bacterial Topoisomerases with Broad-Spectrum Antibacterial Activity and In Vivo Efficacy against Vancomycin-Intermediate Staphylococcus aureus” (Journal of Medicinal Chemistry, 2023)
